Results reported in patent publication US9744191B2, “Antimicrobial compositions and methods” (Yale University, priority 2012, dated 2017).

Details: millimolar concentrations (1 to 10 mM) in YPD medium

With cyclic hepta-arginine [NOVEXATIN®] the “solubility in culture medium” value was “becomes an issue” and the “solubility in culture medium” value (listed as Novexatin®) was “appeared to precipitate”.

Where two headings read alike, the source gives them in different places.
